B1: Eukaryotic translation initiation factor 4E-binding protein 1 (Homo sapiens), Q13541 (parent)
chain: MSGGSSCSQTPSRAIPATRRVVLGDGVQLPPGDYSTTPGGTLFSTTPGGTRIIYDRKFLMECRNSPVTKTPPRDLPTIPGVTSPSSDEPPMEASQSHLRNSPEDKRAGGEESQFEMDI

Variants of: B1
Settings: with rptor_human RPTOR

effect of a mutation on the interaction | Variant
decreasing interaction | T37E;T46E;S65E;T70E;S83E
increasing interaction | T37A;T46A;S65A;T70A;S83A
